# scFv variants of Ab-91 (heavy chain) against a SARS-CoV-2 spike peptide

From the AlphaSeq antibody data of Engelhart et al. 2022 (doi:10.1038/s41597-022-01779-4), copy in the FLAb collection.

All variants were tested on one target, the spike HR2 peptide PDVDLGDISGINAS (SARS-CoV-2).

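Phage display of a naive human antibody library on the peptide gave the parent. Variants in AAYL51 differ from the parent at up to three CDR positions; double and triple changes were sampled at random. Affinity was read by AlphaSeq, a pooled yeast mating assay with surface-displayed partners. The frequency of each diploid, read from paired DNA barcodes, reflects how well the two displayed proteins bind. A regression on co-assayed BCL2-family reference pairs converts the normalised counts of each replicate to an apparent Kd. The assay was run in three technical replicates.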

Parent scFv Ab-91: VL joined to VH by a 15-residue (Gly4Ser)3 linker. Changes lie in the heavy chain CDRs alone.
VL: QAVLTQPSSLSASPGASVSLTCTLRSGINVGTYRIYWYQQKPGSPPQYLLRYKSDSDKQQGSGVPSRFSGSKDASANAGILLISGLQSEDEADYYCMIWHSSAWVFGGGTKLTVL
VH: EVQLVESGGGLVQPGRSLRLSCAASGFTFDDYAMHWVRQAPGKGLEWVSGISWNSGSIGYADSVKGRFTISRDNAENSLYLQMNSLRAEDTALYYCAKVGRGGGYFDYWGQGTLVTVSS

Positions count from residue 1 of the parent VH; S52V puts V in place of S.
Values are log10 of the apparent Kd in nM; lower means stronger binding.
A mean of the replicates is given; it leaves out those without a signal.
An entry "nd" has no value in the source: the pair was not observed among the diploids in that replicate. This suggests poor binding but is not conclusive.
As a blank, each scFv also met three strains without target: over library AAYL51, 21% of these pairings were detected, typically at 4.54 and seldom below 3.26. Also given: how often the same scFv was detected with the empty control strains, with their mean in brackets.
Parent in this assay: reference entry 1.86, copy in this library 0.88.

| changes | log10 Kd, replicates | log10 Kd (nM), mean | empty controls |
|---|---|---|---|
| S52V V64G G102E | nd nd nd | nd | 2/9 (4.13) |
| F29S D31F G50N | 3.22 nd nd | 3.22 | 1/9 (4.36) |
| D30S M34C | nd nd nd | nd | 0/9 |
| A33S G102P | 3.35 3.88 3.67 | 3.64 | 8/9 (5.10) |
| A33R A61K | nd nd 3.69 | 3.69 | 0/9 |
| D62I K65L V99Q | nd nd nd | nd | 0/9 |
| D31Y G50F | nd nd nd | nd | 2/9 (3.92) |
| W53Y Y105R | nd nd nd | nd | 2/9 (3.32) |
| D31T H35N A61T | 3.99 nd nd | 3.99 | 1/9 (4.98) |
| G50D Y60N | nd nd nd | nd | 1/9 (3.93) |
| S57D V99G R101P | 5.08 nd 3.35 | 4.21 | 1/9 (3.84) |
| Y32S M34F W53P | 1.56 nd nd | 1.56 | 1/9 (1.92) |
| A33V I58S F106C | nd 5.30 nd | 5.30 | 1/9 (4.71) |
| T28S H35K Y108G | 6.25 4.76 5.28 | 5.43 | 6/9 (4.65) |
| H35Y I51Y I58K | nd nd nd | nd | 3/9 (4.41) |
| H35A S55V Y105K | nd nd nd | nd | 0/9 |
| A33M M34I A61L | nd 4.79 nd | 4.79 | 0/9 |
| S57N Y60D Y108V | nd nd 4.66 | 4.66 | 2/9 (4.81) |
| I51R S52G W53I | nd nd nd | nd | 1/9 (4.19) |
| D62S K65R Y105W | 3.10 2.58 2.24 | 2.64 | 2/9 (3.92) |
| F27V I58S D62Q | 5.55 nd nd | 5.55 | 3/9 (4.12) |
| G26K I51V | nd nd 3.69 | 3.69 | 1/9 (5.04) |
| W53F G56A G100M | nd 4.78 nd | 4.78 | 0/9 |
| D30G I58R G103D | nd nd nd | nd | 0/9 |
| W53T G100M G103N | nd nd nd | nd | 0/9 |
| G26D S52Q I58Y | 5.30 4.82 5.29 | 5.14 | 3/9 (4.80) |
| M34H W53P G102Y | 3.23 3.24 4.02 | 3.49 | 7/9 (5.10) |
| D62K K65A F106K | 3.99 nd 4.78 | 4.38 | 1/9 (4.67) |
| S57I G103R F106P | nd nd nd | nd | 2/9 (3.66) |
| G26C S55H G102N | nd nd nd | nd | 0/9 |
| D30S H35S G104S | 6.63 4.81 4.44 | 5.29 | 6/9 (4.92) |
| F27M G50P G59C | 3.60 nd nd | 3.60 | 2/9 (4.14) |
| G26E S52R S55H | nd 5.36 5.44 | 5.40 | 2/9 (5.77) |
| Y60W G100Q Y105W | 3.31 3.89 nd | 3.60 | 0/9 |
| I51F S63Y G102P | nd nd nd | nd | 2/9 (4.19) |
| D30M A61Q S63A | 2.35 2.58 2.63 | 2.52 | 8/9 (4.45) |
| K65C | nd nd 3.27 | 3.27 | 0/9 |
| T28K I58Q D107K | 0.87 0.90 0.31 | 0.69 | 0/9 |
| Y32S G59E D107G | 4.78 4.84 nd | 4.81 | 4/9 (5.31) |
| A61T G100P | nd nd nd | nd | 0/9 |
| G26V D31Y A61R | nd nd nd | nd | 0/9 |
| G26A F29G D30V | nd nd nd | nd | 1/9 (4.36) |
| G26M K65S Y108T | nd nd nd | nd | 1/9 (3.73) |
| Y32M G50A Y105S | nd nd nd | nd | 0/9 |
| G26P Y32R G103Y | nd nd nd | nd | 1/9 (3.62) |
| T28W D62T V64W | nd 4.01 nd | 4.01 | 3/9 (4.43) |

For reference, 4 entries of the list once more:

| changes | log10 Kd, replicates | log10 Kd (nM), mean | empty controls |
|---|---|---|---|
| M34H W53P G102Y | 3.23 3.24 4.02 | 3.49 | 7/9 (5.10) |
| W53Y Y105R | nd nd nd | nd | 2/9 (3.32) |
| A33M M34I A61L | nd 4.79 nd | 4.79 | 0/9 |
| D62S K65R Y105W | 3.10 2.58 2.24 | 2.64 | 2/9 (3.92) |